# Literature values in publication PMC6396197, “Oligomannose Glycopeptide Conjugates Elicit Antibodies Targeting the Glycan Core Rather than Its Extremities” (ACS Central Science, 2019).
# Tested on: mice
# Conditions: in vivo; cited from earlier work
substance,measurement,value
Rituximab,half-life of truncation of Man9GlcNAc2 to Man5/6,~6 h
same,time to nearly complete conversion to Man5/6,≤ 2 days
